This is an account of results in US6984394B2, “Plastically deformable implant” (Bausch & Lomb Incorporated, priority 1999, dated 2006).

This data set in a line: Surface tension of surface-active agent. Conditions: in aqueous solution. The format is physicochemical. An excerpt: According to the present invention, the term fluorine-containing gel is defined as a gel-like preparation which comprises a minimum of one fluorocarbon. In especially useful embodiments of the present invention, the fluorine-containing gel comprises essentially three components, i.e., a fluorocarbon, a fluorine-containing surface-active agent, and water. It is possible for different additives to be added to the fluorocarbon-containing and aqueous components. Certain compositions of surface-active agents, fluorocarbons, and water form gels which are able to completely recover their gel structure after they have been liquefied, for example, by exposure to mechanical pressure or heat. This property of the gels according to the present invention makes it possible for them to be used as a generic implant over a long period of time. If the implant material of such an implant that has been inserted into a bodily orifice were to liquefy, for example, as a result of short-term pressure, the gel structure, due to the reversibility described, would be able to recover when in a state of rest. […] The stability of the aphrons depends on the intensity of the interaction between water, surface-active agent, and perfluorocarbon, which in turn is determined by the surface properties and the ability of the individual phases to spread on each other's surface. […]

Regarding “Perfluorooctanoic acid amidotrimethyl ammonium iodide [Example B98]”, the “σO = surface tension” value is “σO < 20 mNm”.
